Test results: ChEMBL document CHEMBL4680248 (Eur J Med Chem, 2020)

Target: T1, GABA-A receptor; alpha-1/beta-3/gamma-2 (Homo sapiens, UniProt P14867+P18507+P28472)
T1 sequence (P14867 whole entry): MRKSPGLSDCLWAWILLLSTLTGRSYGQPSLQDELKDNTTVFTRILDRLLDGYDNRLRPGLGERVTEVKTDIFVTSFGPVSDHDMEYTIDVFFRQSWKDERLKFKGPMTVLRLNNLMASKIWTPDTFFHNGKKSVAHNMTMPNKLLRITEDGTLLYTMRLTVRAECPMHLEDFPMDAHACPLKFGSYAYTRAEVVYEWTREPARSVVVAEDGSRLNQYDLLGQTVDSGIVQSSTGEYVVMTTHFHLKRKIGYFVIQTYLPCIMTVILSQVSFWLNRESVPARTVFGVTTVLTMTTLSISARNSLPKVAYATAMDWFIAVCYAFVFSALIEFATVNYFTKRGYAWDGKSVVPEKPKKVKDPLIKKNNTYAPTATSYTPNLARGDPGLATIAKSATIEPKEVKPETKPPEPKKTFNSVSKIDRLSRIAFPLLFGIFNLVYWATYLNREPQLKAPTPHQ
T1 sequence (P18507 whole entry): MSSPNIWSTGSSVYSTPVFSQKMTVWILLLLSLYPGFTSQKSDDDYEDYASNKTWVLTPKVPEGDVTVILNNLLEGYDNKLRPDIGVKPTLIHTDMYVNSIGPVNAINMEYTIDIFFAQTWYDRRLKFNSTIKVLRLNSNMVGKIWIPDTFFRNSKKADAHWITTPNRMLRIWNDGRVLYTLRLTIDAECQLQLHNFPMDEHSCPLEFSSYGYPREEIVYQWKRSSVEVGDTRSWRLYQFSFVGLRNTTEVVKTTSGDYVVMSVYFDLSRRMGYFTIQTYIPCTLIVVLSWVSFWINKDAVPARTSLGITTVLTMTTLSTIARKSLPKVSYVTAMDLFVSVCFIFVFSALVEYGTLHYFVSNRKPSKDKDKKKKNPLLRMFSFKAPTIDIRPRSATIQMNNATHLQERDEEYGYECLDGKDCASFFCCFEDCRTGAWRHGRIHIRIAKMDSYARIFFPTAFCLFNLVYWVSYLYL
T1 sequence (P28472 whole entry): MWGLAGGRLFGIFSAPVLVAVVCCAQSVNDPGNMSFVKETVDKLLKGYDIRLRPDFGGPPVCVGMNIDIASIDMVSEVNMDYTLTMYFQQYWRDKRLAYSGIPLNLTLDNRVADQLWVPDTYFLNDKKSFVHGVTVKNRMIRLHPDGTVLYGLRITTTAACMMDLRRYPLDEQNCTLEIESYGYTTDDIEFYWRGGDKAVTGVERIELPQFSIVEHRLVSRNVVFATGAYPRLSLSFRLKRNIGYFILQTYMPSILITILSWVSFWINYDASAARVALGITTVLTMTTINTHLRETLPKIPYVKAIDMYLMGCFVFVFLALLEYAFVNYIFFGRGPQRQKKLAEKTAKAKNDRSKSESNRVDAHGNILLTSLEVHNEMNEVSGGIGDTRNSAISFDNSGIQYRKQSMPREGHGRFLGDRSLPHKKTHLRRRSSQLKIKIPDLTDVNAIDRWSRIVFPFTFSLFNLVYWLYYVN
Test: Inhibition of [3H]pTFD-di-iPr-BnOH labelling of GABAA alpha1beta3gamma2L (unknown origin) expressed in Xenopus laevis oocytes assessed as reduction in photoincorporation at beta subunit measured after 30 mins in presence of GABA by liquid scintillation counting method
Format: cell-based

## C=CCC1(c2cccc(C3(C(F)(F)F)N=N3)c2)C(=O)NC(=O)N(C)C1=O (stereo unspecified)
  IC50: 400 nM
